Assay results: ChEMBL document CHEMBL3351542, “Nonpeptide small molecule agonist and antagonist original leads for neuropeptide FF1 and FF2 receptors” (J Med Chem, 2014)

Species on record: Homo sapiens
Test: Selectivity ratio of Ki for human MOR to Ki for human NPFF1 receptor

N=C(N)NCC(=O)NCC1(Nc2cccc3ccccc23)CCN(Cc2ccccc2)CC1 was tested, and the Ratio Ki was 7.

COc1cc(NC2(CNC(=O)CNC(=N)N)CCN(Cc3ccccc3)CC2)cc(OC)c1 was tested, and the Ratio Ki was 7.
